The target of the experiment is T1, MMP-8 (Homo sapiens, UniProt P22894).
T1 construct: catalytic domain (Met80-Gly242) of human neutrophil collagenase; made in house
Description: Inhibition of MMPs (HNC catalytic domain), fluorogenic heptapeptide substrate DNP-Pro-Leu-Gly-Leu-Trp-Ala-D-Arg-NH2. Particulars: MMP-8 (catalytic domain of human neutrophil collagenase), 25° C. Format: biochemical. As for the experimental part: In order to determine the inhibition of MMPs, for example HNC, the catalytic domain (isolation and purification see for example Schnierer, S., Kleine, T., Gote, T., Hillemann, A., Knäuper, V., Tschesche, H., Biochem. Biophys. Res. Commun. (1993) 191, 319-326) is incubated with inhibitors having various concentrations. Subsequently, the initial reaction rate in the conversion of a standard substrate is measured in a manner analogous to Grams F. et al., FEBS 335 (1993) 76-80).
The results are evaluated by plotting the reciprocal reaction rate against the concentration of the inhibitor. […]
The synthetic collagenase substrate is a heptapeptide which is coupled, at the […], with DNP (dinitrophenol). Said DNP residue quenches by steric hindrance the fluorescence of the adjacent tryptophane of the heptapeptide. After cleavage of a tripeptide which includes the DNP group, the tryptophane fluorescence increases. The proteolytic cleavage of the substrate therefore can be measured by the fluorescence value.
The assay was performed at 25° C. in a freshly prepared 50 mM Tris buffer (pH 8.0) treated with dithiozone to remove traces of heavy metals. […] Enzyme concentrations were determined by uv measurements (ε280=2.8 10^4 M1 cm^−1, ε288: 2.2 10^4 M^−1 cm^−1) and the stock solutions were stored in the cold. […] Substrate hydrolysis was monitored for 10 min. immediately after adding the enzyme. […]

Amino acid sequences for entries named in this document (tags omitted). Residues count along the entry.
UniProt P22894, 100-262 limits assumed: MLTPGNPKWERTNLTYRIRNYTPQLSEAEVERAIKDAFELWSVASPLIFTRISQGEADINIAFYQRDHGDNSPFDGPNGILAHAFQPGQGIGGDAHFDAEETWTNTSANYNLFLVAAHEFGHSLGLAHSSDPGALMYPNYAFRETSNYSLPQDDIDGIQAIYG

By IC50 is commonly meant the midpoint of a concentration-inhibition curve. Read a high IC50 as a need for much substance. The substance “5-(4′-Biphenyl)-5-[N-(2-hydroxyethyl)piperazinyl]barbituric Acid [example 25]” had a half-inhibitory concentration (IC50) of 140 nM.

The values above are taken from patent US6472396B1, “Barbituric acid derivatives, processes for their production and pharmaceutical agents containing these compounds” (Roche Diagnostics GmbH, priority 1995, dated 2002).
